Chains of the proteins cited; added tags and fusions are not shown. Lines headed by an entry give the natural chain unless they say otherwise; changes in a name come on top.
UniProt P41146: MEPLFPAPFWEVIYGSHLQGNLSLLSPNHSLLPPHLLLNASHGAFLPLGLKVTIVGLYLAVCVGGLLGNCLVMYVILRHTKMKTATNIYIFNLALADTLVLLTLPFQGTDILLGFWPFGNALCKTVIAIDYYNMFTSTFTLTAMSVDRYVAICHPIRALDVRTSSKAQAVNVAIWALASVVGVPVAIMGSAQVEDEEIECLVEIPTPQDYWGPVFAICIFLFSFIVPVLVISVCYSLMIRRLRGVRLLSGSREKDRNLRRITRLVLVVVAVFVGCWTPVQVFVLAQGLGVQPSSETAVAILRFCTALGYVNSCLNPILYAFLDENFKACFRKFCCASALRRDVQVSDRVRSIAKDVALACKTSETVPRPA

According to patent publication US6635653B2 (priority 2001, dated 2003):

Biological target: human opioid receptor-like receptor (ORL-1) (Homo sapiens, UniProt P41146)
Conditions: read-out: Nociceptin Affinity calc Ki; membranes from recombinant HEK-293 cells expressing human ORL-1

SMILES | Ki [nM]
O=C1NN=C(c2ccccc2)C12CCN(C1Cc3cccc4cccc1c34)CC2 (stereo not drawn) | 0.06
O=C1NN=C(c2ccccc2)C12CCN(C1Cc3ccccc3C1)CC2 | 43
O=C1NN=C(c2ccccc2)C12CCN(C1CCc3ccccc3C1)CC2 (stereo not drawn) | 52.3
